biological target: human TLR7 (Homo sapiens, UniProt Q9NYK1); experiment: Agonistic activity on human TLR7 in HEK-Blue hTLR7 cell line (QUANTI-Blue reporter); settings: read-out: EC50 value of the agonistic effect on human TLR7; HEK-Blue hTLR7 cells, 16-22 h incubation, absorption at 630 nm
Method: The TLR7 agonistic activity of the compounds of the invention in HEK-Blue™ hTLR7 cell line with stable expression of human TLR7 were assayed using the following method: • 1. Weighed the test compounds and prepared stock solutions with DMSO (Sigma) at a concentration of 10 mM. […] The highest concentration was 1 mM. • 2. The test compounds and DMSO control were diluted 10-fold in DPBS buffer (Gibco) and then added to a 96-well cell culture plate (Corning) at a volume of 20 μL/well. • 3. HEK-Blue™ hTLR7 cells (Invivogen) were digested with cell separation solution (Gibco), and counted (TC-20 cell counter, Bio-rad). Cells were diluted to 4.4E5/ml using DMEM cell medium (Gibco). Added the cells to a 96-well cell culture plate at a volume of 180 μL/well. The cells were incubated for 16-22 h at 37° C. in a 5% CO2 incubator. • 4. Prepared QUANTI-Blue detection reagent (Invivogen), and added into a new 96-well plate at a volume of 180 μL/well. Twenty μL of cell culture supernatant was transferred from the cell culture plate and added to the 96-well plate and incubated at 37° C. for 1-3 hours. • 5. Neo2 multifunctional microplate reader (Bio-Tek) was used to measure the optical absorption at 630 nm, and the EC50 was calculated by GraphPad Prism.
The agonistic effect of the compounds of the invention on human TLR7 can be determined by the above experiments, and the measured EC50 value is shown in Table 1.

Protein sequences, listed by entry. Tags and fused reporters are not part of them. Residues count along the entry.
UniProt Q9NYK1, 27-1049 limits assumed: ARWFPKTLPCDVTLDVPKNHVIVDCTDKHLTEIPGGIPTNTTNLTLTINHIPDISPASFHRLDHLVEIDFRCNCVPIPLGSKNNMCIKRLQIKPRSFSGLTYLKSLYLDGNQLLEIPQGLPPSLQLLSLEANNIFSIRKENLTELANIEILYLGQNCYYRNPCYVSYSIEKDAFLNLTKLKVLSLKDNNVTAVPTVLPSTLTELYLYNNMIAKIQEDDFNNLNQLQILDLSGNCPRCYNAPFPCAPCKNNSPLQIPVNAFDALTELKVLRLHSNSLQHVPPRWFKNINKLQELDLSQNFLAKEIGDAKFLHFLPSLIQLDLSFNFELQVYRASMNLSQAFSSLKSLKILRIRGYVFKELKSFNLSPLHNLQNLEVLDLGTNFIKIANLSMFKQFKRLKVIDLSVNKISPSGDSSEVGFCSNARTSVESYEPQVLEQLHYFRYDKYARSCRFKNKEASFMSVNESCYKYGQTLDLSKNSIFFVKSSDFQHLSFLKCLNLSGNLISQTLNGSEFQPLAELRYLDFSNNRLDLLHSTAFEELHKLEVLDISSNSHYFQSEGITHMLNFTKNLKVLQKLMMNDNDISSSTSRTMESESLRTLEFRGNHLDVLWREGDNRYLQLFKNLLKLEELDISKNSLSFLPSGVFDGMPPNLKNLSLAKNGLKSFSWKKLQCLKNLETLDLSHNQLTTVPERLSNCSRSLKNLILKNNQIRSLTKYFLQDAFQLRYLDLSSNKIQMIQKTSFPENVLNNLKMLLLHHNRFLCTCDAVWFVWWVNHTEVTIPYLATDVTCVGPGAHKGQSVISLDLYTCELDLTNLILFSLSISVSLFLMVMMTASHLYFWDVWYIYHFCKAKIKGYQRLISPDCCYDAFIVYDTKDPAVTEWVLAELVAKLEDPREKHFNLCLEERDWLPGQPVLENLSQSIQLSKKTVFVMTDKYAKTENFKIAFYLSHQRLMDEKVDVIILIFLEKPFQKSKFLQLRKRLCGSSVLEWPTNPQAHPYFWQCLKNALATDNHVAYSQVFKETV

| SMILES | EC50 [nM] |
| --- | --- |
| CC(C)(C)N1Cc2c3cc(cc2C1=O)Cn1c(=O)[nH]c2c(N)nc(nc21)NCC/C=C/C3 | 1800 |
| CC(C)(C)N1Cc2c3cc(cc2C1=O)Cn1c(=O)[nH]c2c(N)nc(nc21)NCC/C=C\C3 | 293 |
| CC(C)(C)N1Cc2c3cc(cc2C1=O)Cn1c(=O)[nH]c2c(N)nc(nc21)SCC/C=C/C3 | 64 |

Compounds with a lower EC50, results first:

| EC50 [nM] | SMILES |
| --- | --- |
| 2 | CC(C)(C)N1Cc2c3cc(cc2C1=O)Cn1c(=O)[nH]c2c(N)nc(nc21)S(=O)(=O)CC/C=C/C3 |
| 1 | CC(C)(C)N1Cc2c3cc(cc2C1=O)Cn1c(=O)[nH]c2c(N)nc(nc21)S(=O)(=O)CC/C=C\C3 |
| 7 | CC(=O)N1CCc2c3cc(cc2C1)Cn1c(=O)[nH]c2c(N)nc(nc21)OCCCCC3 |
| 2 | Nc1nc2nc3c1[nH]c(=O)n3Cc1cc(c3c(c1)C(=O)N(CC(=O)O)C3)C/C=C/CCO2 |

Reference: patent US20240124486A1, “MACROCYCLIC TLR7 AGONIST, PREPARATION METHOD THEREFOR, PHARMACEUTICAL COMPOSITION AND USE THEREOF” (SHANGHAI VISONPHARMA CO., LTD., priority 2020, published 2024)
